Drawing on PMC5412283, “Role and Function of A2A and A3 Adenosine Receptors in Patients with Ankylosing Spondylitis, Psoriatic Arthritis and Rheumatoid Arthritis” (International Journal of Molecular Sciences, 2017), this text covers Kd for one compound.

Chains of the proteins cited; added tags and fusions are not shown.
UniProt P0DMS8, whole entry: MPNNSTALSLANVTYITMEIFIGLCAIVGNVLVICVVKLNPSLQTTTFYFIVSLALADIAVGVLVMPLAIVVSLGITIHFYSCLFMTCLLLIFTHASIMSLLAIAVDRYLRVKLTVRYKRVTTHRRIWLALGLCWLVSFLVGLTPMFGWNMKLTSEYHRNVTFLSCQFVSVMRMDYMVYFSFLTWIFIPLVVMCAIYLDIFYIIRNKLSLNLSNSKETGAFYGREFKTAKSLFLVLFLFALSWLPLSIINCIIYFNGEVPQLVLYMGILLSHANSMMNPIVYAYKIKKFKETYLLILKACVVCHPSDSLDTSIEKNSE

The target in the assay is T1, A3AR (Homo sapiens, UniProt P0DMS8).
T1 construct: gene ADORA3; native full-length receptor in peripheral blood lymphocytes or their membranes (healthy donors)
Put plainly: radioligand saturation binding, lymphocyte membranes, filtration. Conditions: labelled compound; healthy subjects (n = […]); […] min at […] °C; membranes prepared in Tris HCl […] pH […] with adenosine deaminase; read-out: A3ARs - KD (nM) / Bmax (fmol/mg protein). An excerpt:
radioligand saturation binding, lymphocyte membranes, filtration on A3AR

Structures are written as SMILES.

For the compound `CCCn1cc2c(nc(NC(=O)Nc3ccc(OC)cc3)n3nc(-c4ccco4)nc23)n1` [[^3H]-MRE 3008F20, [^3H]-5N-(4-methoxyphenylcarbamoyl) amio-8-propyl-2-(2-furyl) pyrazolo [4,3-e]-1,2,4-triazolo [1,5-c]pyrimidine], the Kd was 1.79 ± 0.15 nM.
